The structures appear in SMILES notation. The list shows a part of the results, in another mix than the full data. The source made the active and inactive calls.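 Rule for the calls: active = ratio signal rise beyond 5 SD above unstimulated control wells' mean, seen in both duplicate runs; inactive = the rest.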

The chains behind the UniProt entries cited, without tags or fusion partners.
UniProt Q61143, whole entry: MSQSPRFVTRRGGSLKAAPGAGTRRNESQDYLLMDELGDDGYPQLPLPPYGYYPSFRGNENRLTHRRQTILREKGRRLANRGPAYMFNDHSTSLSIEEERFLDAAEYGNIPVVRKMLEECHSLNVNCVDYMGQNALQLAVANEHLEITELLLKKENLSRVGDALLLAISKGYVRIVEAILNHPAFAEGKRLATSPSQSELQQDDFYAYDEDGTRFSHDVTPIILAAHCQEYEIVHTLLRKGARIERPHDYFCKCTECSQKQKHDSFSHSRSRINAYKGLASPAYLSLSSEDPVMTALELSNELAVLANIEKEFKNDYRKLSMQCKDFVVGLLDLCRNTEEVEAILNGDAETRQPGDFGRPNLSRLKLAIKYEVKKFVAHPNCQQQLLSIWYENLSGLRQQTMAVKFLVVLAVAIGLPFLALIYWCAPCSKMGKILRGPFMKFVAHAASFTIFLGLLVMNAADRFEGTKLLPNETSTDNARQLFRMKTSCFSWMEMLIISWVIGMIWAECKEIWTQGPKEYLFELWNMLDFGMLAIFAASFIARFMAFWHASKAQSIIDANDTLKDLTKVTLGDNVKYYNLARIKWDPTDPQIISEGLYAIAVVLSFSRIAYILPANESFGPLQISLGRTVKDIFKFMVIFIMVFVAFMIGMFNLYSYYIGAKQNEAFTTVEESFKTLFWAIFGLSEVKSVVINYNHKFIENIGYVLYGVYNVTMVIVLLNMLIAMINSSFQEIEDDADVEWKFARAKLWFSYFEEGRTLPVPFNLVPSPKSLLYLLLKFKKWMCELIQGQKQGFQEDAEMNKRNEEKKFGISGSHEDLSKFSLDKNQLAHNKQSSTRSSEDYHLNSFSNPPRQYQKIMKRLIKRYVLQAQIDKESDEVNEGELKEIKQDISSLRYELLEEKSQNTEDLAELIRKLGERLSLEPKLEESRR

The target in the test is Short transient receptor potential channel 6 (Mus musculus) (UniProt Q61143). Nature of the test: mouse TRPC6 channel activators, confirmation, HEK293 cells, membrane potential dye, duplicate (AID 488961). Particulars: HEK293-TRPC6 membrane potential dye fluorescence, FDSS; at 10 µM.
As to `O=C(OC1CN2CCC1CC2)C1c2ccccc2Oc2ccccc21` (stereo not drawn), the result was inactive.

As for `CN1CCN(CCOC(=O)C(O)(c2ccccc2)c2ccccc2)CC1`, the result was inactive.

`CCC(CO)(C(=O)OC1CN2CCC1CC2)c1ccccc1` (stereo not drawn): the result was inactive.
